Tests used:
BMP-2 = target: T1, BMP-2 (Homo sapiens, UniProt P12643); assay: ATDC5 cell based HTS bioassay: ALP production stimulated by BMP-2 and heparin; set-up: species or system mouse; conditions: rhBMP-2 2 μg/ml with heparin vs. no BMP-2, ATDC5 cells
T1 construct: purchased R&D Systems
T1 sequence (P12643 283-396): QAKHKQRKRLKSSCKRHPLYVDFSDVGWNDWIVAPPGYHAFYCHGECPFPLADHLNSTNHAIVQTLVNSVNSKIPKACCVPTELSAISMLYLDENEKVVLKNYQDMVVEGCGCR
Procedure: Poly-L-lysine (Sigma-Aldrich) was added to 384-well plates and was removed after 30 min of incubation at RT. An assay medium containing DMEM/F12, 2% FBS, 100 units/ml penicillin, […] streptomycin (Biological industries) was added to each well. Recombinant human BMP-2 (rhBMP-2, R&D Systems) was then added to each well to a final concentration of 2 μg/ml. ATDC5 cells (Sigma-Aldrich) were harvested, re-suspended in assay medium and added to a final concentration of 2000 cells/well. Finally, heparin (Sigma-Aldrich) was added to a final concentration of 2 μg/ml. […] After incubation, ALP levels and cell viability were determined using a completely automated protocol. […] ALP level was then determined by addition of CDP-Star® chemiluminescent substrate (Sigma-Aldrich) and measurement of luminescence after incubation for 25 min at RT in the dark. Cell viability was finally determined by addition of CellTiter-Glo® reagent (Biological Industries) and luminescence measurement after 10 min of incubation. […]
A library of small molecules (SM) was screened using the High Throughput Screening bioassay described above. […] The ALP levels and cell viability are shown in FIG. 2 as a percentage of the ALP or viability luminescence levels in the presence of BMP-2 without the SM. […]

P19 cells = assay: In vitro differentiation assay of P19 cells (MAP-2 positive neurons); format: cell-based, murine; conditions: RA + 5 ng/ml rhBMP-2, day 8
Procedure: P19 cells were grown in a-minimum essential medium (aMEM) (Gibco) containing 7.5% calf serum, 2.5% fetal calf serum, and 0.4 μl/ml penicillin—streptomycin (Gibco), at 37° C., 5% CO2. Cells were replenished with fresh medium every 48 h. For the differentiation study, P19 cells were cultured at concentration of 2×10^5 cells/60 mm bacterial dish and were either unstimulated or incubated with the following stimulations: • 1) 5×10^−7 M all-trans-retinoic acid (RA) (Sigma) • 2) RA+5 ng/ml rhBMP2 (R&D systems) • 3) RA+rhBMP-2+500 ng/ml mouse anti-human BMP-2/4 mAb (R&D systems) • 4) RA+ rhBMP-2+SM1/SM7/SM9 (Maybridge (HitFinder™ Collection)) at concentrations: 0.625, 1.25 and 2.5 μM.
The medium, including RA, BMP supplements and SMs, was replenished after 48 h. After 4 days, aggregates which formed during RA treatment were dispersed enzymatically (0.05% v/v trypsin-0.02% v/v EDTA) and mechanically and plated in tissue culture grade dishes. At this stage, cells were cultured in RA-, BMP- and SM-free medium, which was refreshed every 48 h. MAP-2 positive neurons were examined at day 8 (i.e., day 4 post-RA treatment) by immunofluorescence. Briefly, at day 7, cells were re-cultured in 24 well-plates with cover slips at a final concentration of 5×10^4 cells/well. […]
Next, the effect of the small molecules on neurogenesis in a P19 differentiation model was measured. […]

SMAD1/5/8 signaling = SMAD1/5/8 signaling by Western blot in P19 cells; format: cell-based, murine; conditions: stimulation for 4 hours vs. no stimulation
Procedure: P19 cells were seeded in 6-well-plates (3.5×10^5 cells/well). On the following day, the cells were either untreated or treated with 5×10^−7 M RA, 5 ng/ml BMP-2 or SMs for 4 h. Cells were washed with ice cold PBS, harvested and lysed with ice cold RIPA buffer (Sigma-Aldrich) supplemented with protease inhibitor cocktail and sodium orthovanadate (Na3VO4) as phosphatase inhibitor (Sigma-Aldrich). Protein concentrations were determined using a BCA protein assay kit (Pierce, Rockford, Ill.). Cell lysates (40-60 μg protein) were separated by 4-15% SDS-PAGE gel electrophoresis and then transferred to nitrocellulose membranes at 0.2 A for 2 h. The membranes were blocked at room temperature for 1 h in 5% (w/v) non-fat-dried milk and then incubated with anti-phospho-Smad1/5/9, anti-Smad1 (Cell signaling Technology, Beverly, Mass., USA) and anti-tubulin (Sigma-Aldrich) antibodies at room temperature for 2 h. The membranes were washed and incubated with alkaline phosphatase-conjugated secondary antibody (Jackson Laboratories Immune Research, PA, USA). Signal was detected using enhanced chemiluminescence kit (Clarity, Bio-Rad Laboratories, Richmond, Calif.) and digital images were captured by MicroChemi (DNR Bio-imaging Systems, Jerusalem, Israel). Protein levels were quantified using ImageJ software and normalized to {alpha}-tubulin. […]

Q: For “rhBMP-2: Recombinant human BMP-2 (R&D Systems), the stimulus of the assays”, which “ratio of ALP/cell, induction” value (BMP-2) is on record?
A: 4.3 fold

Q: And the “MAP-2+ cells” value (P19 cells)?
A: 31.4±4.3%

Q: What about the “induction of p-SMAD expression (normalized to tubulin)” value (SMAD1/5/8 signaling) of the same substance?
A: 4.9 fold

Reference: patent US11779565B2, “Small organic molecules for use in the treatment of neuroinflammatory disorders” (THE MEDICAL RESEARCH, INFRASTRUCTURE AND HEALTH SERVICES …, priority 2017, dated 2023)
